In US20200270233A1, “DHFR INHIBITORS, COMPOSITIONS, AND METHODS RELATED THERETO” (Vyera Pharmaceuticais LLC, priority 2017, published 2020):

Test system: P. falciparum DHFR (pfDHFR)
Type: biochemical
Conditions: Table 20; hDHFR IC50/pfDHFR IC50

Nc1ncc(N2CCN(c3ccccc3)CC2)c(N)n1 [Compound 4, 5-(4-phenylpiperazin-1-yl)pyrimidine-2,4-diamine]
Average DHFR selectivity (h/pf)* − DHFR IC50: 6660
